Ab-14 heavy chain CDR variants: yeast mating affinities

Reference: Li et al. 2023, doi:10.1038/s41467-023-39022-2. File: FLAb, binding data.

The target is the same throughout: PDVDLGDISGINAS, from the HR2 region of SARS-CoV-2 spike.

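Phage display of a naive human antibody library on the peptide gave the parent. The variants were designed computationally from a first round of random CDR variants and then made and measured. Their group label is 14H_GP_HC (GP: Gaussian process model; HC: hill climbing; a sequence that several methods proposed may carry one label only). In AlphaSeq, yeast of one mating type display the scFv and yeast of the other type display the target. The frequency of each diploid, read from paired DNA barcodes, reflects how well the two displayed proteins bind. Each replicate has its own calibration line, from reference interactions of the BCL2 family. Each pool was mated in six replicate cultures.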

Parent: Ab-14, a human scFv built as VH, the linker GGGGSGGGGSGGGGS, VL. Only the CDRs of the heavy chain vary.
VH: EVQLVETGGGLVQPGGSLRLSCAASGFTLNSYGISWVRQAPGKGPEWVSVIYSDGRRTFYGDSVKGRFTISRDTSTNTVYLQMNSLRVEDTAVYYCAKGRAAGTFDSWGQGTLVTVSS
VL: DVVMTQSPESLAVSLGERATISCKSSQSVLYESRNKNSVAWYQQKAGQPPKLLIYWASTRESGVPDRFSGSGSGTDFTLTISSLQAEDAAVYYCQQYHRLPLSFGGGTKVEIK

Each variant is given by its three heavy chain CDRs, as the data file delimits them; those of the parent are GFTLNSYGIS, VIYSDGRRTFYGDSVK, GRAAGTFDS. Affinities are written as log10 Kd with Kd in nM; a lower number is a better binder. "nd" means that the variant was in the library but no mating with the target was seen in that replicate; the authors take this as a sign of poor binding, and no number exists. Of ten entries with the parent sequence, four were seen in most replicates (averages 0.34 to 2.37), three in one and three in none, so single entries are noisy.

The variant GDTLNSYGIS / VIYADGRRTFYSDSVK / GRAAGTFDS showed -0.19, -0.19, -0.19, -0.23, -0.21, 0.28 (controls 1 of 18).
The variant GFTLDSYGIS / VIYADGRRTFYGDSVK / GRQAGTFDS showed -0.48, -0.10, -0.20, -0.38, 0.30, 0.14 (controls 0 of 18).
The variant GFSLNEYGIS / VIYADGRRTFYGDSVK / GRAAGTFDQ showed 0.83, 0.17, 0.05, 0.28, 0.74, 0.27 (controls 0 of 18).
The variant GFTLNEYGIS / VIYSDGRRTFYHDDVK / GRTAGTFDS showed 1.05, 1.16, 1.69, 1.95, 1.73, 1.69 (controls 0 of 18).
The variant GFTLNSYGIS / VIYSDGRRTFYSDSVK / GVAGGTFDL showed 0.99, 2.16, nd, 0.70, 2.08, 1.54 (controls 0 of 18).
The variant GNTLNEYGIS / VIYSDGRRTFYGDSVK / GRMAGTFDS showed 0.97, 1.21, 1.29, 0.99, 0.90, 1.91 (controls 0 of 18).
The variant GFTLNDYGIS / VIYSDGRRTFYGDSVK / GRCAGTFDI showed nd, nd, nd, nd, nd, nd (controls 0 of 18).
The variant GFTLNEYGIS / VIYSDGRRTFYTDSVK / GRAAGTFDV showed 0.20, -0.12, -0.31, 0.35, -0.32, -0.15 (controls 0 of 18).
The variant GFELNDYGIS / VIYSDGRRTEYSDSVK / GRAAGTFDS showed 1.91, nd, 1.79, 3.38, 2.26, nd (controls 0 of 18).
The variant GFTLESYGIS / VIYADGRRTFYGDHVK / GRAAGTFMS showed nd, nd, nd, nd, nd, nd (controls 0 of 18).
The variant GFFLNEYGIS / VIYSDGRRTQYIDSVK / GRAAGTFDS showed 1.63, 1.67, 1.76, 0.36, 3.12, 1.63 (controls 0 of 18).
The variant GFELNSYGIS / VIYSDGRRTFYDDSVK / GKLAGTFDS showed 0.62, 0.35, 0.60, 0.69, 0.33, 0.16 (controls 0 of 18).
The variant GFTLNSYGIS / VIYSDGRRTFYIDSVK / GQVAGKFDS showed nd, nd, nd, nd, nd, nd (controls 1 of 18).
The variant GFTLNSYGIS / VIYSDGKRTFYADSVK / GRAAGTFWS showed nd, nd, nd, nd, nd, nd (controls 0 of 18).
The variant GFSLNDYGIS / VIYSDGRRTFYGDSVK / GRAAVTFDS showed -0.22, 0.47, -0.01, -0.32, 0.10, -0.10 (controls 0 of 18).
The variant GFTLNNYGIS / VIYSDGRRTFYDDSVK / GKLAGTFDS showed 0.58, 0.40, 1.15, 1.15, 1.06, 0.89 (controls 1 of 18).
The variant GFDLNSYGIS / VIYSDGRRTFYGDSVK / GRAAWTFDE showed nd, nd, nd, nd, nd, nd (controls 1 of 18).
The variant GFVLNSYGIS / VIYADGRRTFYGDSVK / GREAGTFDS showed 1.22, 0.55, 0.29, -0.09, 1.32, 1.11 (controls 0 of 18).
The variant GFSLNEYGIS / VIYSDGRRTFYGDSVK / GSAAGTFDR showed 0.63, 0.19, -0.67, -0.10, 2.29, 1.38 (controls 0 of 18).
The variant GFDLNSYGIS / VIYSDGRRTFYGDSVK / GRAAGHFNS showed 0.54, 0.92, 0.99, 1.44, 0.58, 1.50 (controls 0 of 18).
The variant GFTLDEYGIS / VIYADGRRTFYGDSVK / GRAAGTFDS showed -0.47, -0.13, -0.34, -0.41, -0.34, -0.19 (controls 0 of 18).
The variant GFGLNEYGIS / VIYSDGRRTFYHDSVK / GRAAGFFDS showed nd, nd, nd, 1.96, nd, nd (controls 0 of 18).
The variant GFTLNSYGIS / VIYSDGRRTFYTDSVK / GMRAGTFDS showed nd, 2.40, 1.43, 3.04, 1.47, nd (controls 1 of 18).
The variant GETLNEYGIS / VIYSDGRRTFYGDSVK / GRAAVTFDK showed nd, 2.27, nd, 2.35, 2.27, nd (controls 1 of 18).
The variant GFTLNEYGIS / VIYSDGRRTFYGDSVK / GCIAGTFDA showed 1.05, -0.37, 1.36, 0.57, 0.46, 0.88 (controls 0 of 18).
The variant GFSLNEYGIS / VIYSDGRRTFYTDSVK / GHFAGTFDS showed 2.19, 1.83, 1.47, 1.25, 1.73, 1.48 (controls 1 of 18).
The variant GFTLNSYGIS / VIYSDGRRTFYSDSVK / GRAAVTFDM showed nd, nd, nd, nd, nd, nd (controls 0 of 18).
The variant GFTLESYGIS / VIYSDGRRTFYKDSVK / GQGAGTFDS showed nd, nd, nd, nd, nd, nd (controls 0 of 18).
The variant GFRLNEYGIS / VIYSDGRRTFYSDSVK / GRAAGTFDS showed 0.26, 0.05, 0.67, 0.27, 0.12, 0.33 (controls 0 of 18).
The variant GFDLNSYGIS / VIYSDGRRTFYGDSVK / GRAAGAFRS showed 1.48, nd, nd, nd, nd, nd (controls 0 of 18).
The variant GFLLNDYGIS / VIYSDGRRTWYGDSVK / GRAAGTFDS showed nd, nd, nd, nd, nd, nd (controls 1 of 18).
The variant GFQLNEYGIS / VIYSDGRRTFYGDSVK / GRMAGTFIS showed nd, nd, nd, nd, nd, nd (controls 0 of 18).
The variant GFTLNEYGIS / VIYSDGRRTFYTDAVK / GKFAGTFDS showed 0.87, 0.82, 1.24, 0.47, 0.39, 0.35 (controls 2 of 18).
The variant GFTLESYGIS / VIYADGRRTFYGDHVK / GRAAGTFDS showed nd, 0.15, 0.82, 1.93, 1.29, 0.45 (controls 0 of 18).
The variant GFTLESYGIS / VIYADGRRTFYGDHVK / GRAAGTFKS showed 1.14, 0.91, 2.21, 0.17, 1.17, 1.52 (controls 0 of 18).
The variant GFHLNEYGIS / VIYSDGRRTFYIDSVK / GRLAGTFDS showed 1.02, 0.84, 1.17, 2.15, 1.60, 2.16 (controls 0 of 18).
The variant GFTLNSYGIS / VIYSDGRRTFYTDSVK / GMEAGTFDS showed -0.63, -1.11, nd, -1.72, -1.54, nd (controls 0 of 18).
The variant GFDLNSYGIS / VIYSDGRRTFYGDSVK / GKRAGTFES showed nd, nd, nd, nd, nd, nd (controls 1 of 18).
The variant GFNLNSYGIS / VIYSDGRRTFYSDSVK / GHAAGTFDS showed -0.12, 0.19, 0.07, 0.27, -0.36, 1.33 (controls 0 of 18).

For reference, 5 entries of the list once more:

CDR-H1,CDR-H2,CDR-H3,"log10 Kd, replicates",signal with controls
GFTLNSYGIS,VIYSDGRRTFYSDSVK,GVAGGTFDL,"0.99, 2.16, nd, 0.70, 2.08, 1.54",0/18
GDTLNSYGIS,VIYADGRRTFYSDSVK,GRAAGTFDS,"-0.19, -0.19, -0.19, -0.23, -0.21, 0.28",1/18
GFFLNEYGIS,VIYSDGRRTQYIDSVK,GRAAGTFDS,"1.63, 1.67, 1.76, 0.36, 3.12, 1.63",0/18
GFTLNSYGIS,VIYSDGKRTFYADSVK,GRAAGTFWS,"nd, nd, nd, nd, nd, nd",0/18
GFRLNEYGIS,VIYSDGRRTFYSDSVK,GRAAGTFDS,"0.26, 0.05, 0.67, 0.27, 0.12, 0.33",0/18

In the paper, a design with two or fewer of six values counts as a poor binder. Values of this round are not directly comparable with the first-round values of the same sequences. As a blank, each scFv also met three strains without target: over all heavy chain designs, 1% of these pairings were detected, typically at 2.08 and seldom below 0.84. Also given: how often the same scFv was detected with the empty control strains.